The chains behind the UniProt entries cited, without tags or fusion partners.
UniProt P10275, whole entry: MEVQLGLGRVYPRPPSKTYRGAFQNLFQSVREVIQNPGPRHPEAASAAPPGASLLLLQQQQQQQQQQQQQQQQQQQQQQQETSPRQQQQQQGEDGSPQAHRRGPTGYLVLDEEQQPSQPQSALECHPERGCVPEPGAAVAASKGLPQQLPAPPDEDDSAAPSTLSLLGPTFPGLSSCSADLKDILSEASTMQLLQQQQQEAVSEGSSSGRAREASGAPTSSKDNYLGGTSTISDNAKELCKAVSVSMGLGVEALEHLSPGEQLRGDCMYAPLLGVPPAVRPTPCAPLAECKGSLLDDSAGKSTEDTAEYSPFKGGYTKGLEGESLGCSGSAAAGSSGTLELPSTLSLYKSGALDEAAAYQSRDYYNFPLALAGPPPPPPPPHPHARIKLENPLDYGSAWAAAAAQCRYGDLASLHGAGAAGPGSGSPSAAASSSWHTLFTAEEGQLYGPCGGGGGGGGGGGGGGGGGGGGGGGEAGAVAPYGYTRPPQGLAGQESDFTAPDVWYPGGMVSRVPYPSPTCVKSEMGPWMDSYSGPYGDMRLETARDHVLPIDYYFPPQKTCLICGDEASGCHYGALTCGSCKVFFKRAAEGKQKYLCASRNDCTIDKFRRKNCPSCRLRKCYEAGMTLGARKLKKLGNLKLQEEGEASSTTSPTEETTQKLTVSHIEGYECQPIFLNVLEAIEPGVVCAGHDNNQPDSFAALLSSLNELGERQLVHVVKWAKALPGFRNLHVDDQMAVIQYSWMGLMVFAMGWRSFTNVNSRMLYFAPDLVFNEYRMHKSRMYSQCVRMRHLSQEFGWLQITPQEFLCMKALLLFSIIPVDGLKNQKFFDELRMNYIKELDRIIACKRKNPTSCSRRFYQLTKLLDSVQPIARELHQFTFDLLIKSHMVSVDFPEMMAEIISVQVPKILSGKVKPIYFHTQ

In patent publication US7935722B2 (Eli Lilly and Company, priority 2005, dated 2011):

Tests used:
[1] = biological target: human AR (androgen receptor) (Homo sapiens, UniProt P10275); assay: Steroid hormone nuclear receptor binding assay, AR binding; settings: read-out: AR binding Ki; average of n trials
[2] = biological target: human androgen receptor (AR) (Homo sapiens, UniProt P10275); assay: C2C12 AR/ARE reporter assay; assay type: cell-based; settings: for C2C12 % Efficacy: average of n trials; for EC50: read-out: C2C12 EC50, average of n trials

| SMILES | Ki [1] [nM] | C2C12 % Efficacy [2] [%] | EC50 [2] [nM] |
| --- | --- | --- | --- |
| CC(C)C(=O)NC1CCc2c(c3cc(Cl)ccc3n2Cc2ccccc2C#N)C1 (stereo not shown) | 9.6 | 43.2 | 560 |
| COc1ccccc1Cn1c2c(c3cc(C)ccc31)CC(NC(=O)C(C)C)CC2 (stereo not shown) | 121 | 63.6 | 941 |
| COc1cccc(Cn2c3c(c4cc(C)ccc42)CC(NC(=O)C(C)C)CC3)c1 (stereo not shown) | 82.2 | 71.6 | – |
| O=C(NC1CCc2c(c3cc(Br)ccc3n2Cc2cccc(F)c2)C1)C(F)(F)F (stereo not shown) [Example 174] | 29.7 | 13.8 | – |
